Here are results for two compounds from US4975434A, “Antiviral and anticancer cyclopentenyl cytosine” (priority 1989, dated 1990).

The subject of data set [1] is Varicella-Zoster virus, isolate DM625. As to the kind of experiment: Varicella-Zoster Virus (VZV) Plaque Reduction Assay. It is filed as cell-based. The settings on record: result in words. In general terms: Plaques are areas of infected cells; plaque reduction assays count them against a control.
Data set [2] deals with Huf (human diploid foreskin cells). Put plainly: Toxicity to Huf host cells (gross cell morphology) in the VZV assay. The following applies: 320 μg/ml.
For data set [3], the system named is Punta Toro virus, strain Adames. It is filed as cell-based, Punta Toro virus; host Vero cells. The settings on record: minimum toxic drug concentration / ID50; Vero cells.

Consider `Nc1nc2c(ncn2COC(CO)CO)c(=O)[nH]1` [DHPG, 9(1,3-Dihydroxy-2-propoxymethyl)guanine, reference compound], for which the antiviral activity result in data set [1] is on record as “superior”. The “Host cell toxicity (gross cell morphology)” value in data set [2] is recorded as “Slightly toxic”.

With `NC(=O)c1ncn([C@@H]2O[C@H](CO)[C@@H](O)[C@H]2O)n1` [Ribavirin, reference compound], in data set [3], the “TI (therapeutic index)” value is 5.0.
